# scFv variants of Ab-14 (light chain) against a SARS-CoV-2 spike peptide

Target: peptide PDVDLGDISGINAS, taken from heptad repeat 2 (HR2) of SARS-CoV-2 spike.

Ab-14 is the parent antibody, in scFv form: VH, then the linker GGGGSGGGGSGGGGS, then VL. The heavy chain is unchanged in all variants.
VH: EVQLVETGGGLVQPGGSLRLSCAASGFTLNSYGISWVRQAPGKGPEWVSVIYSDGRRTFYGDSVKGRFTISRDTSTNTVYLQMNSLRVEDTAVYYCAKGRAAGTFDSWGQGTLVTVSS
VL: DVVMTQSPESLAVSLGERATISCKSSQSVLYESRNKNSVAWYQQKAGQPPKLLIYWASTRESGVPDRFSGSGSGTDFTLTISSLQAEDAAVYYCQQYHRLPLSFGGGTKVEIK

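The parent was found by panning a naive human phage display library on the peptide. The library (AAYL50) carries one to three amino acid substitutions per variant, with no insertions or deletions. Affinity was read by AlphaSeq, a pooled yeast mating assay with surface-displayed partners. Pairs that bind mate more often; barcode pairs of the diploids are counted by sequencing. The ratio of observed to expected reads was calibrated, replicate by replicate, on BCL2-family standards whose Kd was known from biolayer interferometry. Each pool was mated in three replicate cultures.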

Positions count from residue 1 of the parent VL; S26R puts R in place of S. This list gathers variants with a substitution at S58 (VL, numbered from residue 1). Scale: log10 of Kd in nM, estimated from mating counts; low values are strong binders. "nd" marks a missing value. The strain was present, yet no cells mated with the target were sequenced in that replicate, which points to weak or no binding. For reference, the parent read 0.65 as the reference entry and 1.68 as a member of this library. Three control strains display no target. For library AAYL50, 18% of the pairings with them gave a signal, with a median of 4.19 and one signal in twenty below 2.99, so weak values seen in few replicates may be background.

For S26R W56I S58W, the assay gave 4.95, nd, nd.
For S25T S58T Q95K, the assay gave 1.19, 1.02, 1.01.
For S58I Y97K R99P, the assay gave 3.90, 3.08, 3.00.
For S58G R99W S103E, the assay gave 4.03, 3.11, nd.
For S28L W56A S58K, the assay gave 0.07, 0.40, 0.25.
For S26V S58G Q95C, the assay gave nd, nd, 3.99.
For S58T L102K, the assay gave 0.72, 1.04, 0.88.
For S26C S28R S58H, the assay gave nd, nd, nd.
For S38W S58L S103K, the assay gave nd, nd, nd.
For S33I S58A Q96Y, the assay gave nd, 4.56, nd.
For S58C S62P Y97F, the assay gave nd, nd, nd.
For S58K T59W R60N, the assay gave nd, nd, nd.
For S58K Y97T P101N, the assay gave nd, nd, nd.
For S26E V29D S58C, the assay gave nd, nd, 4.48.
For S26F S58T, the assay gave 1.62, 1.54, 1.46.
For S58I, the assay gave 2.41, 2.20, 1.92.
For S58D E61N L100E, the assay gave 2.55, 2.75, 2.36.
For L30D S58G E61K, the assay gave 2.66, 2.31, 2.60.
For V29Y S33K S58E, the assay gave 0.92, 0.86, 0.83.
For K24Q S58A L100M, the assay gave 1.89, 1.86, 2.58.
For N35I S58D T59G, the assay gave 3.70, nd, nd.
For S58E E61S Q96F, the assay gave 1.12, 1.35, 1.33.
For N35K S58L R99N, the assay gave nd, nd, nd.
For V39M S58V Y97F, the assay gave 2.55, 2.28, 2.36.

Data: MIT Lincoln Laboratory AlphaSeq set, Engelhart et al. 2022, doi:10.1038/s41597-022-01779-4, as distributed in FLAb.